Earlier results in US5278308A, “Iodine derivatives of tetrabenazine” (The Trustees of The University of Pennsylvania, priority 1992, dated 1994).

Test system: monoamine uptake-storage mechanism of amine granules in the synapse
Details: in vivo; cited from earlier work

COC(=O)[C@H]1[C@H]2C[C@@H]3c4[nH]c5cc(OC)ccc5c4CCN3C[C@H]2C[C@@H](OC(=O)c2cc(OC)c(OC)c(OC)c2)[C@@H]1OC [Reserpine]
Duration of depletion of catecholamines and serotonin in the brain (in words): long-lasting
